Assays:
[1] = tested on: target cell lines expressing the target antigen; experiment: GLuc based T cell cytotoxicity assay on target cell lines (summary Table 10A); conditions: for T-CELL Cytotoxicity Assay Positive cell line: target cell line RAJI; for T-CELL Cytotoxicity Assay Positive cell line: RAJI: Gluc cytotoxicity, 4-96 hour co-culture of RAJI with SIR-expressing T cells vs control T cells
human CD19 = biological target: T1, human CD19 (Homo sapiens, UniProt P15391); experiment: NLuc binding assay with CD19-GGSG-NLuc-AcV5 fusion protein; conditions: for NLuc values (binding of CD19-GGSG-NLuc-AcV5): Jurkat-NFAT-Luc cells stably transduced, selected in puromycin; for Mean NLuc value (binding of CD19-GGSG-NLuc-AcV5): human peripheral blood T cells expressing the constructs
T1 construct: The extracellular domains of human CD19 and human MPL, including their signal peptides, were fused in frame; made in house; host or cells: 293FT cells, transient transfection; conditioned medium used unpurified

The chains behind the UniProt entries cited, without tags or fusion partners. A line that says so, or that is headed by a name, gives the form on record, which may keep a tag or linker.
UniProt P15391, with tags, fused parts or gaps: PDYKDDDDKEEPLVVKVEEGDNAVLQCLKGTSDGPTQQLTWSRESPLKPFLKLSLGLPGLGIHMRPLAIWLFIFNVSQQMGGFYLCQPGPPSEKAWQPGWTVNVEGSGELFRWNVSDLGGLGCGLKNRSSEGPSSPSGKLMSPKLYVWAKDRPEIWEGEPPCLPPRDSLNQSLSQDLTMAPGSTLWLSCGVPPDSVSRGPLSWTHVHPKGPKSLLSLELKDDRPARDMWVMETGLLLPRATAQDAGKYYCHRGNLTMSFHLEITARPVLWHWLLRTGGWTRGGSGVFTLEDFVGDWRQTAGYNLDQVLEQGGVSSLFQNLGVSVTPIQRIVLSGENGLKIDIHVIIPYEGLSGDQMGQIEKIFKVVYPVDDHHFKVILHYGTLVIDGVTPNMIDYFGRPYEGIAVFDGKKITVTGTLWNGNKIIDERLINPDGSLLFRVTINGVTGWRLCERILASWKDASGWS

| Substance | NLuc values (binding of CD19-GGSG-NLuc-AcV5) (human CD19) | Mean NLuc value (binding of CD19-GGSG-NLuc-AcV5) (human CD19) | T-CELL Cytotoxicity Assay Positive cell line: RAJI [1] | further results |
| --- | --- | --- | --- | --- |
| CD8SP-CD19Bu12-(vL-vH)-Myc-BBz-T2A-PAC [SEQ ID NO:4503, reference compound] | – | – | – | T-CELL Cytotoxicity Assay Positive cell line [1]: RAJI (2+) |
| CD8SP-CD19Bu12-vL-V5-[TCRb-S57C-opt1]-F-P2A-SP-CD19Bu12-vH-Myc-[TCRa-T48C-opt1]-F-F2A-PAC [SEQ ID NO:1021] | 128996 | 39575 | – | – |
| CD8SP-CD20-2F2-vL-[canine-TCRb-opt]-F-P2A-CD20-2F2-vH-[canine-TCRa-opt]-F-F2A-PAC [SEQ ID NO:1113] | – | – | RAJI (2+) | – |
| CD8SP-FMC63(vL-vH)-Myc-BBz-T2A-PAC [SEQ ID NO:4501, reference compound] | – | – | – | binding to Flag-CD19-GGSG-NLuc-AcV5 (in words) (human CD19; 293FT cells transiently transfected with CAR): strong binding |
| CD8SP-FMC63-vL-Myc-[hTCRa-T48C-opt1]-F-F2A-FMC63-VH-V5-[hTCRb-C57C-opt1]-F-P2A-PAC [SEQ ID NO:902] | – | – | RAJI (+), | – |
| CD8SP-FMC63-vL-V5-[TCRb-S57C-opt1]-F-P2A-SP-FMC63-vH-Myc-[TCRa-T48C-opt1]-F-F2A-PAC [SEQ ID NO:900] | 37216 | 19178 | RAJI (2+) | increase in CD19-GGSG-NLuc binding (human CD19; Jurkat-NFAT-Luc cells): more than 10 fold |
| CD8SP-FMC63-vL-V5-[hTCRb-S57C-opt]-F-P2A-SP-FMC63-vH-Myc-[hTCRa-T48C-opt]-F-F2A-PAC [SEQ ID NO:951] | – | – | – | T-CELL Cytotoxicity Assay Positive cell line [1]: RAJI (2+) |
| CD8SP-FMC63-vL-V5-[hTCRb-WT]-F-P2A-SP-FMC63-vH-Myc-[hTCRa-WT]-F-F2A-PAC [SEQ ID NO:922] | 3606 | 1190 | – | – |
| CD8SP-FMC63-vL-V5-[hTCRg-opt]-F-P2A-SP-FMC63-vH-Myc-[hTCRd-opt]-F-F2A-PAC [SEQ ID NO:949] | 2176 | – | – | – |
| CD8SP-FMC63-vL-V5-[mTCRb-opt]-F-P2A-SP-FMC63-vH-Myc-[mTCRa-opt]-F-F2A-PAC [SEQ ID NO:953] | 12128 | 5359 | – | T-CELL Cytotoxicity Assay Positive cell line [1]: RAJI (+) |
| IgHSP-FMC63-vH-[hTCRb-C57C-opt]-F-P2A-CD8SP-FMC63-VL-MYC-[hTCRa-T48C-opt]-F-F2A-Pac [SEQ ID NO:901] | – | – | RAJI (2+) | – |

Source: patent publication US12269859B2, “Synthetic immune receptors and methods of use thereof” (Angeles Therapeutics, Inc., priority 2016, dated 2025)
